Only a part is listed here, and it is no random draw. Some results for these compounds are left out of this collection, so the calls shown say nothing about other tests. The source made the active and inactive calls.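 The calls were made as follows: active = inhibition above a per-plate limit, mean inhibition of low control wells plus 3 SD (cut at about 25% in these data); inactive = the rest.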
Target: ADP-ribosylation factor GTPase-activating protein 1 (Rattus norvegicus) (UniProt Q62848)
Assay: blockers of ARFGAP1-stimulated ARF1 GTP hydrolysis – biochemical, fluorescence polarization, GDP tracer, primary screen (AID 651572)
Settings: GDP FP detection, at 16.5 µM, active compounds read high
Outline: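 Material: truncated rat Arfgap1 GAP domain; Incubation: compound-enzyme preincubation 20 min, reaction 120 min, detection 60 min, 25 °C; Read-out: percent inhibition of Arfgap1-stimulated GTP hydrolysis; Technique: FP, GDP Alexa 633 tracer displaced from anti-GDP antibody, 620/688 nm; Controls: No-Arfgap1 wells (100%) versus DMSO full-reaction wells (0%); Replication: single well per compound.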

Protein sequences, listed by entry. Tags and fused reporters are not part of them. Residues count along the entry.
UniProt Q62848, 1-136 limits assumed: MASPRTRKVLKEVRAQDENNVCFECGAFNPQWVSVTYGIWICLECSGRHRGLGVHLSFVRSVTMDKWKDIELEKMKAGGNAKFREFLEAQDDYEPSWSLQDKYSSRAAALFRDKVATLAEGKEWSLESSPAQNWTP

SMILES | inhibition
O=C(NCC1(N2CCCCC2)CCCCC1)c1cccc(Cl)c1 | inactive: 11.1%
COc1cccc(C(=O)NCC2(N3CCCCC3)CCCCC2)c1 | inactive: -6.23%
COc1ccc(Cl)cc1C(=O)NCC1(N(C)C)CCCCC1 | inactive: 3.92%
COc1cc(C(=O)NCC2(N(C)C)CCCCC2)c([N+](=O)[O-])cc1OC | inactive: 3.57%
CN(C)C1(CNC(=O)c2ccc(Br)cc2)CCCCC1 | inactive: 3.53%
CN(C)c1cccc(C(=O)NCC2(N(C)C)CCCCC2)c1 | inactive: -6.44%
CC(C)Oc1ccc(C(=O)NCC2(N(C)C)CCCCC2)cc1 | inactive: 5.72%
O=C(OCCN1CCCC1)C(O)(c1ccccc1)c1ccccc1 | inactive: -1.46%
COc1ccc(Br)c(C(=O)NCC2(N3CCCCC3)CCCCC2)c1 | inactive: 8.98%
C=C(C)C#CC(O)(C(=O)OC1CCN(C)CC1)c1ccccc1 (stereo unspecified) | inactive: -0.71%
O=C(OC1CN2CCC1CC2)C(CO)(c1ccccc1)c1ccccc1 (stereo unspecified) | inactive: 1.37%
Cc1ccc(C(=O)NCC2(N3CCCCC3)CCCCC2)cc1 | inactive: 3.49%
CC(C)N1C(=O)CC2(CCN(CCOC(=O)C(O)(c3ccccc3)c3ccccc3)CC2)C1=O | inactive: -0.86%
CCN(CC)CC(C)C(C)OC(=O)C(O)(c1ccccc1)c1ccccc1 (stereo unspecified) | inactive: -3.88%
COc1cc(SC)ccc1C(=O)NCC1(N(C)C)CCCCC1 | inactive: 0.71%
CN1[C@@H]2CC[C@H]1CC(OC(=O)C(O)(c1ccccc1)c1ccccc1)C2 (stereo partly specified) | inactive: -1.89%
O=C(NCC1(N2CCCCC2)CCCCC1)c1cc([N+](=O)[O-])ccc1Cl | inactive: -7.5%
Cc1cc(C(=O)NCC2(N3CCCCC3)CCCCC2)ccc1[N+](=O)[O-] | inactive: 9.17%
CCN1CCCC(OC(=O)C2(O)c3ccccc3C=Cc3ccccc32)C1 (stereo unspecified) | inactive: 15.2%
O=C(NCC1(N2CCCCC2)CCCCC1)c1cccc(Br)c1 | inactive: 11%
COc1ccc(C(=O)NCC2(N(C)C)CCCCC2)cc1 | inactive: 13.1%
C=CCN1CCN(CCOC(=O)C(O)(c2ccccc2)c2ccccc2)CC1 | inactive: 11.1%
O=C(NCC1(N2CCCCC2)CCCCC1)c1cc(F)c(F)cc1Cl | inactive: -0.89%
Cc1ccccc1C(=O)NCC1(N2CCCCC2)CCCCC1 | inactive: 11.7%
CN(C)C1CCCC1OC(=O)C(O)(c1ccccc1)c1ccccc1 (stereo unspecified) | inactive: 7.78%
CN(C)c1ccc(C(=O)NCC2(N(C)C)CCCCC2)cc1 | inactive: 0.05%
